Target: T1, human NK3 receptor (Homo sapiens, UniProt P29371)
T1 construct: expressed in transfected cells
Assay: NK3 receptor efficacy and potency assay (Calcium 4 Assay kit, FDSS 7000)
Type: cell-based
Settings: dose-response curve with NKB in BHK cells expressing human NK3 receptor
Method: BHK cells stably expressing the human NK3 receptor were seeded in 100 μl media in black walled clear-base 96-wells plates (Costar) aiming at a confluency of 95-100% at the day of assay. The assay was performed according to the Calcium 4 Assay kit (Molecular Devices). At the day of the assay, the media was removed and the cells were washed once with the HBSS buffer (Hanks BSS buffer, pH 7.4 containing 20 mM Hepes) before 100 μl of a solution of the calcium assay reagent dissolved in the HBSS buffer containing 2.5 mM probinicid was added to the cells. The plates were incubated for 60 min at 34° C., 10% CO2 before use in the FDSS 7000 for examination of fluorescence. […]
For efficacy and potency evaluation of compounds, these were diluted in HBSS buffer prior to test. For test of agonist activity, 25 μl of the diluted compound solution was added and the plate was analyzed for 5 minutes in the FDSS 7000. […] The plates were subsequently analyzed for 5 minutes before the assay was terminated. The maximal increase in fluorescence over background following each ligand addition was determined. The IC50 value was calculated using sigmoidal variable slope curve fitting, and the cIC50 value was determined using the equation (cIC50=IC50/(1+(EC85/EC50))), where EC85 and EC50 for NKB were determined as described above.

The chains behind the UniProt entries cited, without tags or fusion partners.
UniProt P29371, whole entry: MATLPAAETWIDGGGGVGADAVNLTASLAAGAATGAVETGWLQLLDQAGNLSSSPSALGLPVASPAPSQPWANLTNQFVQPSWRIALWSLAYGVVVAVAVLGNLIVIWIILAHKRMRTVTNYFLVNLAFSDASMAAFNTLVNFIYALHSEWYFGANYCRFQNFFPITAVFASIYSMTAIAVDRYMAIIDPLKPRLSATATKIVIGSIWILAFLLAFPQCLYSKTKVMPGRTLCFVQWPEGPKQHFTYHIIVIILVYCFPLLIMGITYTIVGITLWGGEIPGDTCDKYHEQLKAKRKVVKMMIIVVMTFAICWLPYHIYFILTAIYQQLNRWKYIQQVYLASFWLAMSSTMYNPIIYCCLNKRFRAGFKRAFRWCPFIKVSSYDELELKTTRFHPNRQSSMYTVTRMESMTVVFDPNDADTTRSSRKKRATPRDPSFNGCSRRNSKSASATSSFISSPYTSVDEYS

EC85 concentration of NKB: ~2 nM
Substance: neurokinin B [NKB]
